Screens: PubChem BioAssay, Broad Institute
Rows were chosen to be rich in hits. Some 1.5% of all compounds tested hit in one or more screens of this group.
Cneo AK release – Cryptococcus neoformans lysis via adenylate kinase release; AID 651654; 360,000 compounds, 0.2% hits; C. neoformans lysis, adenylate kinase release luminescence, 4 h; normalised: neutral wells 0, clomiphene wells 100; lysis activity, % at 15 µM;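 active = mean lysis activity across replicates of at least 80%, whatever share of replicates individually reach that level; inactive = mean lysis activity below 80%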
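Schedule: static 4 h at 37 °C with compound, 1 h detection; system: C. neoformans cells; benchmarks: Clomiphene as positive control; buffer or medium: fresh YPD medium; measure: luminescence rise reflecting yeast cell lysis; measured by: luminescent adenylate kinase detection reagent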
FN deposit inh – fibronectin deposition inhibition; inhibition, % at 12.6 µM; 350,000 compounds, 0.086% hits; AH1F fibroblasts, Alexa488-fibronectin deposition fluorescence, overnight;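 active = mean inhibition across replicates of 30% or more, regardless of how many single replicates reach that level; inconclusive = mean under 30% yet at least half of replicates reach 30%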
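Assay system: AH1F fibroblasts assembling fluorescent fibronectin matrix; Amount: 10000 AH1F cells per well; Buffer or medium: DMEM, 2% serum; Probe or stimulus: Alexa488-fibronectin, 24 nM final in well; Doses: single compound dose, delivered by pin transfer; Incubation: 1 h adhesion, overnight exposure; Measured by: fluorescence 485/525 nm; Read-out: fibronectin deposition inhibition.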
HIV Env fusion – HIV envelope-mediated fusion inhibition. HeLa-JRFL Env/CEM21 cell fusion, luciferase. inhibition, % at 12.3 µM. AID 651610. 360,000 compounds, 1.1% hits;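 active = mean replicate inhibition score of at least 50 and every replicate individually at or above 50; inconclusive = only one of the two criteria met; inactive = mean below 50 and not all replicates reaching 50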
miR-122 sensor – blocks miR-122 activity in Huh7 sensor cells | Huh7 miR-122 Renilla luciferase sensor, 48 h; neutral wells = 0, positive control = 100 | AID 602342 | activation (reporter increase), % at 12.5 µM | 340,000 compounds, 0.3% hits;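 active = mean replicate activation score at least 90 and every replicate individually at or above 90; inconclusive = only one of the two criteria met; inactive = neither criterion met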;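 also: higher luciferase means less miR-122 activity so hits act as miR-122 inhibitors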
Yeast UUG start – alters start codon recognition fidelity in yeast | S. cerevisiae UUG-firefly luciferase reporter, luminescence/redox ratio | activity score, % at 18.7 µM | 350,000 compounds, 0.13% hits | AID 602363;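 active = replicate mean at a twofold rise or more, about +100% in these data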;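 note: firefly luciferase made from a UUG start codon reports start codon fidelity; reporter light over untreated wells divided by growth signal over untreated wells; some hits fall short of that in this replicate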
PGC1a acetyl inh – lowers PGC1a acetylation signal in U2OS cells; 350,000 compounds, 0.17% hits; AlphaScreen anti-acetyl-lysine; with virally co-expressed GCN5 acetyltransferase; inhibition, % at 15.6 µM; AID 651687;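 active = every replicate shows inhibition of at least 40%; inconclusive = mean inhibition at least 40% but some replicate below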
Large screens that a line does not name were inactive.

Cc1ccccc1CN1CCN(C(=O)c2ccc(F)cc2)CC1	none (no result: miR-122 sensor, PGC1a acetyl inh)
O=C1CCC(c2ccccc2)c2ccccc21 (stereo not given)	none
N#CC1C(=O)c2ccccc2C1c1ccccc1 (stereo not given)	FN deposit inh 37.9 (no result: Cneo AK release, miR-122 sensor, Yeast UUG start, PGC1a acetyl inh)
Cn1c(NCCN2CCOCC2)nc2c1c(=O)n(Cc1cccc(Cl)c1)c(=O)n2C	none (no result: FN deposit inh, HIV Env fusion)
CNC(=O)c1ccc(CN(C)C(=O)c2cccc(S(=O)(=O)N3CCc4ccccc4C3)c2)cc1	none
COc1ccc(CCC(=O)NCCc2ccc(Cl)cc2)cc1	none
COc1ccc2c(c1)C(SCC(=O)NCCc1ccc(Cl)cc1)CC(C)(C)O2 (stereo not given)	HIV Env fusion 62.6
O=c1c2ccccc2cnn1-c1nc2ccccc2[nH]1	HIV Env fusion 62.6 (no result: Cneo AK release, FN deposit inh, miR-122 sensor, Yeast UUG start, PGC1a acetyl inh)
NCC(O)COCCC12CC3CC(CC(C3)C1)C2 (stereo not given)	none
CC(NCC(O)COCCC12CC3CC(CC(C3)C1)C2)c1ccccc1 (stereo not given)	HIV Env fusion 73.4 (no result: miR-122 sensor, PGC1a acetyl inh)
C[C@@H]1CN([C@@H](C)CO)C(=O)Cc2cc(NC(=O)Nc3ccccc3)ccc2O[C@@H]1CN(C)C(=O)Nc1ccc2c(c1)OCO2	none (no result: FN deposit inh)
C[C@@H]1CN([C@H](C)CO)C(=O)Cc2cc(NC(=O)NC3CCCCC3)ccc2O[C@@H]1CN(C)Cc1ccccc1	Cneo AK release 91.6 (no result: FN deposit inh, PGC1a acetyl inh)
CC(C)NC(=O)Nc1ccc2c(c1)CC(=O)N([C@H](C)CO)C[C@H](C)[C@@H](CN(C)C(=O)Nc1ccc3c(c1)OCO3)O2	Cneo AK release 99.8 (no result: FN deposit inh)
C[C@H]1CN([C@@H](C)CO)C(=O)Cc2cc(NC(=O)Nc3ccccc3)ccc2O[C@H]1CN(C)C(=O)Nc1ccc2c(c1)OCO2	Cneo AK release 101.8 (no result: FN deposit inh)
CC(C)NC(=O)Nc1ccc2c(c1)CC(=O)N([C@@H](C)CO)C[C@@H](C)[C@@H](CN(C)C(=O)Nc1ccc3c(c1)OCO3)O2	none (no result: FN deposit inh)
CC(C)NC(=O)Nc1ccc2c(c1)CC(=O)N([C@@H](C)CO)C[C@H](C)[C@H](CN(C)Cc1ccc(Oc3ccccc3)cc1)O2	none (no result: FN deposit inh, HIV Env fusion)
CC(C)NC(=O)Nc1ccc2c(c1)CC(=O)N([C@@H](C)CO)C[C@@H](C)[C@@H](CN(C)Cc1ccc(Oc3ccccc3)cc1)O2	Cneo AK release 109.2 (no result: FN deposit inh, HIV Env fusion)
CC(C)NC(=O)Nc1ccc2c(c1)CC(=O)N([C@H](C)CO)C[C@@H](C)[C@H](CN(C)Cc1ccc3c(c1)OCO3)O2	Cneo AK release 100.4 (no result: FN deposit inh, Yeast UUG start)
O=C(CCN1C(=O)S/C(=C\c2ccc(Cl)cc2)C1=O)Nc1ccc(C(=O)O)cc1	none (no result: miR-122 sensor, PGC1a acetyl inh)
COC(=O)c1ccc(/C=C2/SC(=S)N(CCCC(=O)Nc3ccc(O)cc3)C2=O)cc1	none (no result: miR-122 sensor, PGC1a acetyl inh)
COc1ccc(/C=C2\SC(=O)N(CCCC(=O)Nc3ccc(C(=O)O)cc3)C2=O)cc1	HIV Env fusion 88.8
Cc1ccc(/C=C2\SC(=S)N(CCCC(=O)Nc3ccc(O)cc3)C2=O)cc1	HIV Env fusion 63.6
O=C(CCN1C(=O)/C(=C/c2ccccc2)SC1=S)NCCCN1CCOCC1	PGC1a acetyl inh 56.4
O=C(CCN1C(=O)/C(=C\c2cccc(Br)c2)SC1=S)NCCCN1CCOCC1	none
Cc1ccc(/C=C2\SC(=S)N(CCCC(=O)Nc3ccccc3C(=O)O)C2=O)cc1	HIV Env fusion 67.9 (no result: FN deposit inh, PGC1a acetyl inh)
COC(=O)c1c(CSc2cccc(C)c2)noc1C(=O)NCc1ccco1	none (no result: FN deposit inh, PGC1a acetyl inh)
COc1ccc(/C=C2\SC(=S)N(CCCC(=O)NNC(=O)c3ccccc3O)C2=O)cc1	HIV Env fusion 58.6 (no result: Cneo AK release, Yeast UUG start)
CC(C)c1ccc(NC(=O)CNCC(c2ccccc2)N(C)C)cc1 (stereo not given)	none
CCCCCCCCN1C(=O)[C@@H](CC(=O)NCc2ccc(OC)c(OC)c2)C[C@@]2(C(=O)OC)C1=C[C@H](C(C)(C)C)O[C@@H]2C	HIV Env fusion 69.9 (no result: Cneo AK release, miR-122 sensor, Yeast UUG start, PGC1a acetyl inh)
COC(=O)[C@]12C[C@H](CC(=O)NCc3ccc(OC)c(OC)c3)C(=O)N(CCc3ccc(OC)c(OC)c3)C1=C[C@H](C(C)(C)C)O[C@@H]2C	HIV Env fusion 58.3 (no result: Cneo AK release, miR-122 sensor, Yeast UUG start, PGC1a acetyl inh)
CCCCCCCCN1C(=O)[C@@H](CC(=O)NCc2cccs2)C[C@@]2(C(=O)OC)C1=C[C@H](C(C)(C)C)O[C@@H]2C	HIV Env fusion inconclusive (no result: Cneo AK release, miR-122 sensor, Yeast UUG start, PGC1a acetyl inh)
